Measurements as given in PubChem BioAssay AID504462 (Sanford-Burnham Center for Chemical Genomics, 2011).
The entries are a selection whose mix differs from that of the whole data set. Activity calls are given as the source filed them. No stated cut-off is given here; in the data, active means inhibition above about 40%; inactive means the rest.

Chains of the proteins cited; added tags and fusions are not shown. Lines headed by an entry give the natural chain unless they say otherwise; changes in a name come on top.
UniProt Q9Y4P1: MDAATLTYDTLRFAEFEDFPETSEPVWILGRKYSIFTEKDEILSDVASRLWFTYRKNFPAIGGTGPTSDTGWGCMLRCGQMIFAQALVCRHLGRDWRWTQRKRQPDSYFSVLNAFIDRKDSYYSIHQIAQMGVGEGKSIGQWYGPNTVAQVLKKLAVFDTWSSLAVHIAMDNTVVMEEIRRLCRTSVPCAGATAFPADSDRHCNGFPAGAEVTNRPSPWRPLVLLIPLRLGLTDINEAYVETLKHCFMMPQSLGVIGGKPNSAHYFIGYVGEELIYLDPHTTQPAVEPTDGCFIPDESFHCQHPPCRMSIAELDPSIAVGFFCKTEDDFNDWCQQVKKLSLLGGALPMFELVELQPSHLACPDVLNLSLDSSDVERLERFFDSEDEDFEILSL

The compounds below were run against Cysteine protease ATG4B (Homo sapiens) (UniProt Q9Y4P1) (assay: ATG4B protease inhibitors, primary screen, biochemical, fluorescence, uHTS (AID 504462)). Details: ATG4B cleavage of LC3-PLA2, NBD-HPC fluorescence, 1 h; at 8.33 µM; active compounds read high.
`Clc1n[nH]nc1-c1nn[nH][15n]1` was tested, and the inhibition was inactive: -8.23%.
`CC(C)(C)C(=O)NC(Sc1ncccn1)C(Cl)(Cl)Cl` (centres undefined) was tested, and the inhibition was inactive: -0.48%.
In the case of `CCOP(=O)(Nc1ccc(C)cn1)OCC`, the inhibition is reported as inactive: 6.79%.
In the case of `CN(CCCl)Cc1cc(Cl)c(NC2=NCCN2)c(Cl)c1`, the inhibition is reported as inactive: 7.07%.
For `O=P1(Nc2ccccn2)COc2ccccc2OC1`, the inhibition was inactive: 0.12%.
In the case of `CCC1=CC2Cc3nc4ccc(Cl)cc4c(N)c3C(C1)C2` (centres undefined), the inhibition is reported as inactive: 8.01%.
`CCOP(=O)(NC(=NC(C)c1ccccc1)NC(C)c1ccccc1)OCC` (centres undefined) was tested, and the inhibition was inactive: -6.27%.
With `CC1(CBr)Cn2c(nc3ccccc3c2=O)S1` (centres undefined) the inhibition was inactive: 3.57%.
For `CC(C)/C=N\N=C(\N)N[N+](=O)[O-]`, the inhibition was inactive: 16.7%.
For `CN(C(=O)Cc1ccc(Cl)c(Cl)c1)[C@@H]1CCCC[C@H]1N1CCCC1`, the inhibition was inactive: 6.97%.
With `COc1ccccc1CNC(=O)COC(=O)C(O)(c1ccccc1)c1ccccc1` the inhibition was inactive: -6.83%.
For `O=C(/C=C/c1ccccc1)OC1CN2CCC1CC2` (centres undefined), the inhibition was inactive: -1.73%.
In the case of `CCCC1OP(=O)(Nc2ccccc2)OCC1CC` (centres undefined), the inhibition is reported as inactive: -5.46%.
`CN(C)C1(CNC(=O)c2ccc(S(C)(=O)=O)cc2)CCCCC1` was tested, and the inhibition was inactive: 3.99%.
For `Cc1nn(-c2ccccc2)c2c1P(=O)(N1CCOCC1)N(C)C(c1ccccc1)=N2` (centres undefined), the inhibition was inactive: -28.4%.
`CC1CCC(C(C)C)C(OP(=O)(Nc2ccccn2)c2ccccc2)C1` (centres undefined) was tested, and the inhibition was inactive: 2.97%.
In the case of `Cc1ccc(C(=O)OC2CN3CCC2CC3)cc1` (centres undefined), the inhibition is reported as inactive: 4.6%.
For `O=[As](O)(c1cccs1)c1cccs1`, the inhibition was inactive: 12%.
For `Cc1ccc(OCC(=O)OC2CN3CCC2CC3)cc1` (centres undefined), the inhibition was inactive: 11.1%.
For `O=P1(Nc2ccc(Br)cn2)COc2ccccc2OC1`, the inhibition was inactive: 6.28%.
With `NS(=O)(=O)c1cccc(NC(=O)COC(=O)C(O)(c2ccccc2)c2ccccc2)c1` the inhibition was inactive: -15.1%.
`Nc1cccc([As](=O)(O)c2ccccc2)c1` was tested, and the inhibition was inactive: -4.51%.
For `O=P1(Nc2ncccn2)COc2ccccc2OC1`, the inhibition was inactive: -4.16%.
For `Nc1ccccc1[As](=O)(O)c1ccccc1`, the inhibition was inactive: 5.06%.
For `O=C(O)COc1ccc([As](=O)(O)O)cc1[N+](=O)[O-]`, the inhibition was inactive: 1.14%.
For `CS(=O)(=O)c1cc([N+](=O)[O-])c2no[n+]([O-])c2c1`, the inhibition was inactive: 1.7%.
For `CCOP1(=S)c2c(C)nn(CCC#N)c2N=C(c2ccccc2F)N1C` (centres undefined), the inhibition was inactive: 0.48%.
For `O=P(Nc1nccs1)(Oc1ccccc1)Oc1ccccc1`, the inhibition was inactive: 7.63%.
For `O=P(Nc1nccs1)(c1ccccc1)c1nc2ccccc2s1` (centres undefined), the inhibition was inactive: -2.09%.
